Measured affinities in a library of Ab-14 light chain variants

Target: peptide PDVDLGDISGINAS, taken from heptad repeat 2 (HR2) of SARS-CoV-2 spike.

Parent scFv Ab-14: VH joined to VL by a (GGGGS)3 linker. Changes lie in the light chain CDRs alone.
VH: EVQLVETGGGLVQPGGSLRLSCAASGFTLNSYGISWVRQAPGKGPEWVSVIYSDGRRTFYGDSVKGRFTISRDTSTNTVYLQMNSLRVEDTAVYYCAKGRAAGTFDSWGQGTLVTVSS
VL: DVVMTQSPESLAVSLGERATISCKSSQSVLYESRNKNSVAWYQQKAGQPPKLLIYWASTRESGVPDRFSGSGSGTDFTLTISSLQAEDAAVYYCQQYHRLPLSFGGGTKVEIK

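Phage display of a naive human antibody library on the peptide gave the parent. Designed CDR sequences, proposed from the first random library and measured here. Their group label is 14L_GP_HC (GP: Gaussian process model; HC: hill climbing; a sequence that several methods proposed may carry one label only). The assay is AlphaSeq: two haploid yeast populations carry antibody and antigen on their surface. Pairs that bind mate more often; barcode pairs of the diploids are counted by sequencing. The ratio of observed to expected reads was calibrated, replicate by replicate, on BCL2-family standards whose Kd was known from biolayer interferometry. There are six technical replicates.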

Positions count from residue 1 of the parent VL; S25L puts L in place of S.
Affinities are written as log10 Kd with Kd in nM; a lower number is a better binder.
"ND" means that the variant was in the library but no mating with the target was seen in that replicate; the authors take this as a sign of poor binding, and no number exists.

| changes | log10 Kd, replicates | signal with controls |
|---|---|---|
| S25L/S26D/S28G/V29H/W56G | 0.30 0.11 0.28 0.11 0.09 0.41 | 4/18 (2.72) |
| S25L/S26R/S28Q/V29T/W56D/S62E | -0.31 -0.46 -0.22 -0.75 -0.28 -0.31 | 0/18 |
| S26L/Q27W/V29W/W56H/S62Q | 1.03 1.29 0.90 2.88 1.11 1.13 | 0/18 |
| S25I/Y31F/S33W/W56D | 0.22 0.05 -0.15 -0.17 -0.16 0.11 | 2/18 (3.03) |
| S25L/S26R/V29T/L30D/K36Q | ND ND 1.52 1.34 ND 2.26 | 0/18 |
| S25F/V29F/W56G/Q96N | 0.30 -0.04 -0.10 -0.29 -0.09 0.09 | 0/18 |
| S25L/S26D/S28G/V29K/W56G | 0.29 0.42 0.16 -0.05 -0.07 0.12 | 0/18 |
| S25L/S26L/V29Q/L30E/W56H/S62D | 0.18 0.22 0.38 -0.13 0.44 0.29 | 2/18 (2.80) |
| S25M/V29F/W56G/Q96N | 0.28 0.02 0.01 -0.09 0.01 0.25 | 0/18 |
| S25L/S26C/V29T/W56G | -0.08 -0.51 -0.50 -0.54 -0.35 -0.23 | 0/18 |
| S25V/Y31G/S33Q/W56D | 1.09 0.97 0.95 1.33 1.04 0.98 | 2/18 (3.36) |
| S25F/S28K/S33G/N35T/W56N | 0.22 0.24 0.26 0.16 0.14 0.45 | 1/18 (3.28) |
| S26L/Q27W/V29Q/R34N/W56H/S62D | 1.24 0.24 0.34 0.47 0.27 0.75 | 0/18 |
| K24A/S25A/S28G/V29W/W56G/S62D | ND ND ND ND ND ND | 1/18 (0.97) |
| S25F/V29W/W56G/T59S | 0.46 0.46 0.61 0.38 0.48 0.77 | 1/18 (2.74) |
| K24H/Q27P/W56N/S62D/S103Q | 0.25 -0.09 0.05 -0.52 -0.12 -0.16 | 0/18 |
| S25F/N35T/K36A/W56N | -0.22 -0.56 -0.35 -0.72 -0.37 -0.17 | 0/18 |
| Q27I/V29Y/R34M/W56D/A57G | 0.30 0.30 0.00 0.19 -0.06 0.30 | 0/18 |
| S25I/V29Y/W56G | -0.21 -0.04 -0.31 -0.30 -0.16 -0.09 | 1/18 (2.19) |
| S25M/Y31M/W56D/T59L | -0.12 -0.17 -0.32 -0.28 -0.23 -0.08 | 2/18 (3.79) |
| S25V/S26L/L30P/S33G/W56H/S62D | 0.11 0.13 -0.05 -0.05 0.01 0.10 | 1/18 (3.42) |
| S25Q/V29T/Y31C/W56D | 0.20 0.22 0.41 0.23 0.54 0.40 | 4/18 (2.43) |
| V29Q/W56G/P101E | ND ND ND ND ND ND | 0/18 |
| L30K/Y31N/W56D | 0.70 0.52 0.42 0.15 0.56 0.84 | 0/18 |
| Q27I/V29N/W56E/S103M | 0.02 -0.32 -0.21 -0.39 -0.12 -0.20 | 0/18 |
| Q27I/V29Y/Y31Q/S33K/W56E | 0.20 0.35 0.17 0.26 0.14 0.25 | 2/18 (1.90) |
| S25M/S28E/Y31F/W56D | -0.08 -0.41 -0.53 -0.44 -0.40 -0.45 | 1/18 (2.69) |
| S25V/N35F/W56N | 0.23 0.12 0.27 -0.16 0.13 0.08 | 0/18 |
| Q27I/V29Y/L30E/W56A | 0.10 -0.12 -0.25 0.04 -0.07 0.09 | 0/18 |
| S25V/N35M/W56D/E61S/S103E | -0.19 -0.43 -0.46 -0.56 -0.34 -0.14 | 0/18 |
| S25M/S26E/S28G/L30M/N37G/W56G/T59V | 0.06 0.44 0.34 0.46 0.36 0.38 | 1/18 (1.86) |
| S25L/S26D/S28G/V29Q/W56G | -0.08 -0.04 -0.09 0.04 -0.05 0.05 | 1/18 (2.59) |
| S26Y/V29F/W56G/Q96N | 1.41 0.97 1.04 0.46 1.64 1.01 | 1/18 (2.98) |

Excerpt, the first 3 entries:

| changes | log10 Kd, replicates | signal with controls |
|---|---|---|
| S25L/S26D/S28G/V29H/W56G | 0.30 0.11 0.28 0.11 0.09 0.41 | 4/18 (2.72) |
| S25L/S26R/S28Q/V29T/W56D/S62E | -0.31 -0.46 -0.22 -0.75 -0.28 -0.31 | 0/18 |
| S26L/Q27W/V29W/W56H/S62Q | 1.03 1.29 0.90 2.88 1.11 1.13 | 0/18 |

In the paper, a design with two or fewer of six values counts as a poor binder.
The parent sequence was in this pool as ten entries: three were never detected, three once, and four in most replicates, with averages from 0.34 to 2.37.
Background: pairings of all light chain designs with three empty control strains gave a value in 4% of cases (median 2.64, 5th percentile 1.59). Values in that range, when seen in few replicates, are hard to tell from nonspecific mating. Also given: how often the same scFv was detected with the empty control strains, with their mean in brackets.
A sequence measured in both rounds can read differently, since the two assays cover different ranges.

From the AlphaSeq antibody data of Li et al. 2023 (doi:10.1038/s41467-023-39022-2), copy in the FLAb collection.